Source: US10501412B2, “Conjugates of cell binding molecules with cytotoxic agents” (HANGZHOU DAC BIOTECH CO., LTD., priority 2012, dated 2019)
Where two headings read alike, the source gives them in different places.

Test system: KPL-4 (breast cancer cell line)
Assay: In vitro cytotoxicity (clonogenic assay) on KPL-4
Type: cell-based

Trastuzumab-TZ03 conjugate
IC50 (in the absence of unconjugated Trastuzumab (as restated in the specificity window), read-out: IC50, antiproliferative effect): 0.09 nM | IC50 (in the absence of unconjugated Trastuzumab, DAR 3.5˜4.0, read-out: IC50, antiproliferative effect): 0.09 nM
